This is a selection; strong and weak results do not stand in their true shares. Activity calls are given as the source filed them.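 The calls were made as follows: active = mean activation above a set limit taken from the primary screen (cut at about 8% in these data); inactive = the rest.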

The assay is described as follows: FXN GAA850 promoter activators in reporter cells, confirmation, cell-based, luminescence, HEK293 lucGAA850, triplicate (AID 588351).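 Also: 0% = DMSO wells and 100% = 10 µM SAHA wells.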 The conditions noted are these: HEK293 lucGAA850 FXN promoter luciferase reporter, 24 h; at 6 µM; stronger effect = higher value; 100% = activation by SAHA.
On to `CCc1nc2c(n1)c1c(non1O)c1c2no[n+]1[O-]`, for which the activation is active: 29.5%. With `CC(=O)NC(SC(=S)N(C)C)C(Cl)(Cl)Cl` (configuration not stated) the figure was active: 23%.

Values taken from PubChem BioAssay AID588351 (The Scripps Research Institute Molecular Screening Center, 2011).
